What all share (assay): fluorescence polarisation
The target in one experiment is T1, Chp1 chromodomain V21A (S. pombe, UniProt Q10103 9-76, V21A).
T1 sequence (looked up): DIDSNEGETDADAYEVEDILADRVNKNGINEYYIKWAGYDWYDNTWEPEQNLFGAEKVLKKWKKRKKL

By UniProt entry, the sequences of proteins in these tests, tags left out. Where a name states a change or a piece, a line headed by the entry shows the natural chain unless it says otherwise.
UniProt Q10103: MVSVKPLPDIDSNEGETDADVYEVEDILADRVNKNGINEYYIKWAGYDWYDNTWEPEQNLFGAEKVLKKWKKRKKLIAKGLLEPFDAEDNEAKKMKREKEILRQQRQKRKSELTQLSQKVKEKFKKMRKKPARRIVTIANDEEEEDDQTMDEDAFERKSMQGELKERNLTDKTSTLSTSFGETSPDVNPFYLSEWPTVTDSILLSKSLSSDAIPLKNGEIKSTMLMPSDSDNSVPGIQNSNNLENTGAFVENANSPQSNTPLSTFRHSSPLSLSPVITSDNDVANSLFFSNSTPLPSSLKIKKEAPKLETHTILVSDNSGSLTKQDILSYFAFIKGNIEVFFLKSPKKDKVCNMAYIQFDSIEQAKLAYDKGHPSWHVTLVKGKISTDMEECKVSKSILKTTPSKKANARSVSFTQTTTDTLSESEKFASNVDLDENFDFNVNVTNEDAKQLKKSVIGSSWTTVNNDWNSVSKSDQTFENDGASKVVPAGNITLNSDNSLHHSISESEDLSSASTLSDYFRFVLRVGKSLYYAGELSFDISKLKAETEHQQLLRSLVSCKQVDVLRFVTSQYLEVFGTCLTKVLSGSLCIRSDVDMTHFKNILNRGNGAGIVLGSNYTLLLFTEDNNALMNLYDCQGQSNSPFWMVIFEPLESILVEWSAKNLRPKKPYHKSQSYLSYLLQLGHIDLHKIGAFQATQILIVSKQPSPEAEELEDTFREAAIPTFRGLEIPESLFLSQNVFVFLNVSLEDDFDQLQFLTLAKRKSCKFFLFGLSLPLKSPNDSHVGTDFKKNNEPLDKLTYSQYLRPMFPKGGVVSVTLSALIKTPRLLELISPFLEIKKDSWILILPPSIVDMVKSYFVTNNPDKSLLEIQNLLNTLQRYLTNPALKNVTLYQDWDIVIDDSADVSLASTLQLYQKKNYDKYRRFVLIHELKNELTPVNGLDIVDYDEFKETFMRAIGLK

Another experiment has as its target T2, Chp1 chromodomain E23V (S. pombe, UniProt Q10103 9-76, E23V).
T2 sequence (looked up): T1 sequence (looked up) with A13V, E15V

The target of a further experiment is T3, Chp1 chromodomain F61A (S. pombe, UniProt Q10103 9-76, F61A).
T3 sequence (looked up): T1 sequence (looked up) with A13V, F53A

For a further experiment, the target named is T4, Chp1 chromodomain V24M (S. pombe, UniProt Q10103 9-76, V24M).
T4 sequence (looked up): T1 sequence (looked up) with A13V, V16M

For experiment [1], the target named is T5, Chp1 chromodomain E23V,V24M (S. pombe, UniProt Q10103 9-76, E23V | V24M).
T5 sequence (looked up): T1 sequence (looked up) with A13V, E15V, V16M

In another experiment the target is T6, Chp1 chromodomain N59A (S. pombe, UniProt Q10103 9-76, N59A).
T6 sequence (looked up): T1 sequence (looked up) with A13V, N51A

The target in experiment [2] is T7, Chp1 chromodomain, wild type (for binding studies) (S. pombe, UniProt Q10103 9-76).
T7 sequence (looked up): T1 sequence (looked up) with A13V

Positions count from the first letter of the chain named.

Take ARTKQTARKSTGGKAY (dimethyl-lysine at 9; fluorescein (position not given)) [fluorescein labeled H3K9me2 peptide]: the Kd with Chp1 chromodomain V21A was 3.38 ± 0.6 µM; with Chp1 chromodomain E23V, 4.1 ± 0.37 µM; with Chp1 chromodomain F61A, 1.02 ± 0.28 µM; with Chp1 chromodomain V24M, 9.58 ± 0.55 µM; in experiment [1], 22.1 ± 1.7 µM; with Chp1 chromodomain N59A it was 6.22 ± 1.12 µM. The same molecule displayed a Kd in experiment [2] of 0.55 ± 0.09 µM.

Consider ARTKQTARKSTGGKAY (trimethyl-lysine at 9) [H3K9me3 peptide (fluorescence polarization)], for which the Kd with Chp1 chromodomain V21A stood at 1.46 ± 0.4 µM; with Chp1 chromodomain E23V, 3.16 ± 0.32 µM; with Chp1 chromodomain F61A it was 0.54 ± 0.2 µM; in the experiment with Chp1 chromodomain V24M, 5 ± 0.45 µM; with Chp1 chromodomain N59A it was 5.95 ± 1.83 µM; in experiment [2], 0.19 ± 0.02 µM.

By Kd is commonly meant a measure of binding affinity in units of concentration.
